{"source": "patent US10196357B2", "about": "“Biaryl compositions and methods for modulating a kinase cascade” (Athenex, Inc., priority 2007, dated 2019)", "type_in_all_cases": "cell-based", "key": {"Daoy": {"test_system": "Daoy", "assay": "brain tumor cell growth inhibition, Daoy", "settings": "Homo sapiens, desmoplastic cerebellar medulloblastoma, read-out: IC50 (title: GI50)", "experimental": "(§1) These GI50s were determined using standard tumor growth inhibition assays, similar to those described in detail in this Example 7."}, "SK-N-MC": {"test_system": "SK-N-MC", "assay": "brain tumor cell growth inhibition, SK-N-MC", "settings": "Homo sapiens, neuroepithelioma, read-out: IC50 (title: GI50)", "experimental": "as §1"}, "SW1088": {"test_system": "SW1088", "assay": "brain tumor cell growth inhibition, SW1088", "settings": "Homo sapiens; SW1088, astrocytoma; read-out: IC50 (title: GI50)", "experimental": "as §1"}, "U87": {"test_system": "U87", "assay": "brain tumor cell growth inhibition, U87", "settings": "Homo sapiens, U-87 MG; U87, glioblastoma; astrocytoma; read-out: IC50 (title: GI50)", "experimental": "as §1"}}, "data": [{"smiles": "Cc1nc(Nc2ncc(C(=O)Nc3c(C)cccc3Cl)s2)cc(N2CCN(CCO)CC2)n1", "note": "[Dasatinib, reference compound]", "values": [{"measurement": "IC50", "setting": "Daoy", "result": 2.93, "unit": "µM"}, {"measurement": "IC50", "setting": "SK-N-MC", "result": 5.11, "unit": "µM"}, {"measurement": "IC50", "setting": "SW1088", "result": 0.897, "unit": "µM"}, {"measurement": "IC50", "setting": "U87", "result": 1.59, "unit": "µM"}]}]}
